Chains of the proteins cited; added tags and fusions are not shown.
UniProt Q15858, whole entry: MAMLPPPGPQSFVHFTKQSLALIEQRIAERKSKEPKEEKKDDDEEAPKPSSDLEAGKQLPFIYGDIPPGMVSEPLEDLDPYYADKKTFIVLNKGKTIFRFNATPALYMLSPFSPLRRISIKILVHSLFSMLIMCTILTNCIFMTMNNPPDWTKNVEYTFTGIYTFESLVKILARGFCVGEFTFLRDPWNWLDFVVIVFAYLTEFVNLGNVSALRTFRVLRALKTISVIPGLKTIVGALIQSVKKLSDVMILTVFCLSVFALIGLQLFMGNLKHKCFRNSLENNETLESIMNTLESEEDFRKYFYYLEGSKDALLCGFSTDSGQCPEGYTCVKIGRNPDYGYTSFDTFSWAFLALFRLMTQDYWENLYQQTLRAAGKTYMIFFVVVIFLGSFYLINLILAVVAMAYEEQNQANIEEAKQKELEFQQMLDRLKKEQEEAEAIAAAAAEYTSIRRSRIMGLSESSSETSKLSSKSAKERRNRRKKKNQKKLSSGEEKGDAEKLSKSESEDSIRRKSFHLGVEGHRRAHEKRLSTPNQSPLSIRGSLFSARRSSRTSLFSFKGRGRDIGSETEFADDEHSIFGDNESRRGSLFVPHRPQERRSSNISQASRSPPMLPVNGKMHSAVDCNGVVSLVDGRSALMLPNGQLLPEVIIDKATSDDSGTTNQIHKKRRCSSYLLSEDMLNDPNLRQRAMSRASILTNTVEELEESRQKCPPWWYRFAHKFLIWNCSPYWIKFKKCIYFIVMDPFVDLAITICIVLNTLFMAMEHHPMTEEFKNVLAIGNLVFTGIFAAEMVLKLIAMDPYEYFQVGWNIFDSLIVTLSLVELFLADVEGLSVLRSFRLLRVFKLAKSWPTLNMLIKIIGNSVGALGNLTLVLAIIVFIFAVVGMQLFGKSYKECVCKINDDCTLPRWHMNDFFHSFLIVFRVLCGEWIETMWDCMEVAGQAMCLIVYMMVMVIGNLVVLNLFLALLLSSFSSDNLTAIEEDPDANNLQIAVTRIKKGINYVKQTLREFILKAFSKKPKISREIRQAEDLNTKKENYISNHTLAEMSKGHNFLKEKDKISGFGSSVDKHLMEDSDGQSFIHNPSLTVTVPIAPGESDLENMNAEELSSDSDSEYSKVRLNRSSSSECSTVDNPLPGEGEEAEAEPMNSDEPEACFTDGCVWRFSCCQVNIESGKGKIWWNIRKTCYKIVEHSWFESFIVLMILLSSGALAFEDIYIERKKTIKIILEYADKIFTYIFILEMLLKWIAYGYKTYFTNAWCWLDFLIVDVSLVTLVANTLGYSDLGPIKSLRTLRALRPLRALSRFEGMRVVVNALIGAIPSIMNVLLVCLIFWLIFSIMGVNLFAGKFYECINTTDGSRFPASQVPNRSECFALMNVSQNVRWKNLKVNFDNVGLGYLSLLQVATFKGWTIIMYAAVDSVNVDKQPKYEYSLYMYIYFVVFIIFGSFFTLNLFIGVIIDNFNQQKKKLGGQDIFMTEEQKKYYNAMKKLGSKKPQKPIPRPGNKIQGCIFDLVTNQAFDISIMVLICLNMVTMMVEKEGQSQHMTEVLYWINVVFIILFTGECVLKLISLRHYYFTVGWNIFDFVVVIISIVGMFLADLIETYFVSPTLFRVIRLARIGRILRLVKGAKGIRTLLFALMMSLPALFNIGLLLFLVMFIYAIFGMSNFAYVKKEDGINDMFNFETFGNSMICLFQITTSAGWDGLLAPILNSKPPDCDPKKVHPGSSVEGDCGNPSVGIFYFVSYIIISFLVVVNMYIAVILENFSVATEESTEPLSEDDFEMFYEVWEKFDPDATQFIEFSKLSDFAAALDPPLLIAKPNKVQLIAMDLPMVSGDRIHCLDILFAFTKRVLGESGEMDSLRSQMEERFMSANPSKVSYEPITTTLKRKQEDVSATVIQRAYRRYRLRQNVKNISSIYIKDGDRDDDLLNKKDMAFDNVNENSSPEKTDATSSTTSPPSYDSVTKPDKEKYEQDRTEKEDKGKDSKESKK

According to ChEMBL document CHEMBL4007444, “Development of New Benzenesulfonamides As Potent and Selective Nav1.7 Inhibitors for the Treatment of Pain” (J Med Chem, 2017):

target: Sodium channel protein type 9 subunit alpha (Homo sapiens, UniProt Q15858); assay: Inhibition of recombinant human Nav1.7 expressed in HEK293 cells assessed as reduction in peak inward current at -60 mV holding potential measured after 600 secs by IonWorks Barracuda patch-clamp assay; assay type: cell-based
How it was run: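 HEK293 cells expressing the channel, measured by population patch clamp on IonWorks Barracuda. […] Internal: K-gluconate/KCl, pH 7.2. Compound incubated 600 s between pre- and post-compound reads. Nav1.7: held at -60 mV, 300 ms at -100 mV, then 20 ms test pulse to -20 mV. Nav1.5: held at -40/-50 mV, 300 ms at -100 mV, then step to -10 mV to inactivate.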

| IC50 [nM] | Compound |
| --- | --- |
| 164 | N[C@H]1CC[C@@](CCNc2cc(F)c(S(=O)(=O)Nc3nccs3)cc2Cl)(c2ccccc2)CC1 |
| 963 | CN[C@H]1CC[C@@](CCOc2cc(F)c(S(=O)(=O)Nc3ncns3)cc2F)(c2ccccc2)CC1 |
| 9 | N[C@H]1CC[C@](CCNc2cc(F)c(S(=O)(=O)Nc3nccs3)cc2Cl)(c2ccccc2)CC1 |
| 8.4 | O=S(=O)(Nc1nccs1)c1cc(Cl)c(NCCC2CCCCN2)cc1F (racemic) |
